The text below walks through data of patent US20250339425A1 (Northeastern University, priority 2024, published 2025).

In the experiment the test system is CFA-induced inflammatory pain in mice. To be noted: mouse, in vivo.

As for `CC[N+]1(C)CCN(c2ccc(NC(=O)c3cccc(C)n3)cc2)CC1` [Compound II, 1-Ethyl-1-methyl-4-(4-(6-methylpicolinamido)phenyl)piperazin-1-ium iodide], the “antinociceptive effect in WT vs α7 nAChR KO mice” value is “essentially the same in both WT and α7 nAChR KO animals”; the “mechanical thresholds (von Frey) in CFA-treated mice” value is “elevated”; the “von Frey responses in sham-treated mice” value was “did not alter von Frey responses”.
